{"source": "patent US20100190849A1", "about": "“Novel Clerodanes and Methods for Repelling Arthropods” (priority 2006, published 2010)", "system": "Aedes aegypti", "assay": "K & D module mosquito anti-biting (repellent) bioassay", "type": "in vivo", "protocol": "Insects: Ae. aegypti(L.) (red eye Liverpool strain) and An. stephensi Liston used in the study were from colonies maintained at the Walter Reed Army Institute of Research, Silver Spring, Md. […] Adults were maintained in a photoperiod of 12:12 (L:D) h at 27° C. and 80% RH with cotton pads moistened with 10% aqueous sucrose solution. Mated females were 5-15 d old when they were used in bioassays. Ae. aegypti females had access only to water 24 h and neither food nor water for another 24 h before testing. An. stephensi females were provided with water alone 24 h before testing.\nRoutinely, a six-celled K & D module containing five mosquitoes/cell was positioned over cloth treatments covering the six blood-membrane wells, and trap doors of the K&D modules were opened to expose the treatments to the sets of mosquitoes. After a 3 minute exposure, the number of mosquitoes biting through cloth treatments in each cell was recorded and mosquitoes were prodded back into the cells. […] Experiments were replicated 12, 18, 32, or 56 times. Thus, 60, 90, 160. or 280 mosquitoes were tested against each treatment depending on the experiment, and the proportion of mosquitoes not biting for each treatment was calculated. […]", "note": "Marks after values point to notes of the source that are not given here.", "data": [{"smiles": "CC1=CCC[C@@H]2[C@@](C)(CC(=O)O)[C@H](C)CC[C@@]12C", "note": "[13,14,15,16-tetranorclerod-3-en-12-oic acid]", "values": [{"measurement": "biting deterrent efficacy (in words)", "setting": "Example 2, Table 7", "result": "equivalent to both callicarpenal and picaridin"}, {"measurement": "Proportion Not Biting", "setting": "Table 7, Example 2, synthetic compounds, dose not given", "result": "0.60^b"}]}]}
